Antibody variant affinities, Ab-14 heavy chain, assay B

Target: peptide PDVDLGDISGINAS, taken from heptad repeat 2 (HR2) of SARS-CoV-2 spike.

Parent scFv Ab-14: VH joined to VL by a 15-residue (Gly4Ser)3 linker. Changes lie in the heavy chain CDRs alone.
VH: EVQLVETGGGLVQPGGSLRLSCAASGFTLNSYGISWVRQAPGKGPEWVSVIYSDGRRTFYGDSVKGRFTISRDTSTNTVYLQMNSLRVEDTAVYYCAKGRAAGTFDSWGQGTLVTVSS
VL: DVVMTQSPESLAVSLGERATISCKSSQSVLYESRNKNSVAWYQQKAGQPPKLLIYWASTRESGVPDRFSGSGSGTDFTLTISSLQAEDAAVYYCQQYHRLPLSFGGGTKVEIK

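The starting antibody came from a phage panning campaign against this peptide. This is the validation round: designs drawn from the data on random variants, tested in the same kind of assay. Their group label is 14H_GP_HC (GP: Gaussian process model; HC: hill climbing; a sequence that several methods proposed may carry one label only). Affinity was read by AlphaSeq, a pooled yeast mating assay with surface-displayed partners. After mating in shaken culture at 30 °C for 16 h, diploids were selected and their barcode pairs sequenced. Each replicate has its own calibration line, from reference interactions of the BCL2 family. Mating was done six times.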

Each variant is given by its three heavy chain CDRs, as the data file delimits them; those of the parent are GFTLNSYGIS, VIYSDGRRTFYGDSVK, GRAAGTFDS. Numbers give log10(Kd / nM), so 0 is 1 nM and 3 is 1 µM. Smaller is tighter. Averages over replicates are reported, and they cover detected replicates only. Where no diploid with the target was found in that replicate, the entry reads "nd": below detection, most likely a poor binder, though not proof of it. The authors' rule: three or more of the six replicates give a measured affinity, fewer mean a poor binder.

Variant GFQLNSYGIS | VIYSDGRRTFYGDNVK | GRAAGTFDS showed nd, nd, nd, nd, nd, nd (controls 0 of 18).
Variant GFTLNSYGIS | VIYSDGRRTFYDDDVK | GQVAGTFDS showed 1.26, 0.68, 1.19, 1.55, nd, 1.70 (mean 1.27; controls 0 of 18).
Variant GFSLNNYGIS | VIYADGRRTFYGDSVK | GRAAGTNDS showed 1.45, 0.72, 1.18, 1.45, 0.93, 0.84 (mean 1.10; controls 2 of 18).
Variant GFTLESYGIS | VIYSDGRRTFYDDSVK | GQKAGTFDS showed nd, 2.26, 1.66, 2.01, 1.44, 3.80 (mean 2.23; controls 0 of 18).
Variant GFTLESYGIS | VIYADGRRTFYGDWVK | GRAAGTFKS showed nd, nd, nd, nd, nd, nd (controls 0 of 18).
Variant GFTLNSYGIS | VIYSDGRRTFYSDSVK | GRVVGTFDS showed nd, nd, nd, nd, nd, nd (controls 0 of 18).
Variant GFTLNSYGIS | VIYSDGERTFYCDSVK | GQAAGTFDS showed nd, nd, nd, nd, nd, nd (controls 0 of 18).
Variant GFTLNEYGIS | VIYSDGRRTFYTDSVK | GLAAGTFDL showed 0.32, 0.08, -0.01, 0.12, -0.06, 0.21 (mean 0.11; controls 0 of 18).
Variant GFTLTSYGIS | VIYADGRRTFYGDSVK | GRAAGTFKS showed nd, nd, nd, nd, nd, nd (controls 0 of 18).
Variant GFSLNEYGIS | VIYSDGRRTFYGDSVK | GPAAGTFDM showed nd, nd, nd, nd, nd, nd (controls 0 of 18).
Variant KFTLNEYGIS | VIYSDGRRTFYTDSVK | GRTAGTFDS showed 0.69, 0.98, 1.15, 1.52, 1.04, 0.94 (mean 1.05; controls 2 of 18).
Variant GFQLNSYGIS | VIYADGRRTFYGDQVK | GRAAGTFDS showed 0.88, 1.41, 0.30, 0.20, 0.27, 0.78 (mean 0.64; controls 0 of 18).
Variant GFTLNQYGIS | VIYSDGRRTFYADSVK | GRAAGTFDT showed -0.01, 0.06, 0.11, -0.21, 0.12, -0.33 (mean -0.04; controls 0 of 18).
Variant GFQLNDYGIS | VIYSDGRRTYYGDSVK | GRAAGTFDS showed 0.56, 3.41, 1.47, 1.13, 0.30, 0.77 (mean 1.27; controls 0 of 18).
Variant GFWLNNYGIS | VIYADGRRTFYGDSVK | GTAAGTFDS showed nd, 0.68, 0.96, 0.18, -0.17, 0.78 (mean 0.49; controls 0 of 18).
Variant GFTLNSYGIS | VIYSDGRRTFYSDSVK | GSAVGTFDS showed nd, nd, nd, nd, 2.33, 2.90 (mean 2.62; controls 0 of 18).
Variant GFDLNSYGIS | VIYSDGRRTFYIDSVK | GRAAGTFND showed nd, 0.36, 0.92, nd, 0.40, nd (mean 0.56; controls 0 of 18).
Variant GFTLNSYGIS | VIYSDGRRTFYGDDVK | GQLAGTFDS showed nd, nd, nd, nd, nd, nd (controls 0 of 18).
Variant GFQLNDYGIS | VIYSDGRRTFYGDSVK | GRMAGTFIS showed nd, nd, nd, nd, nd, nd (controls 0 of 18).
Variant GFTLNEYGIS | VIYSDGRRTFYSDSVK | GSAAGTFDN showed 0.03, 0.36, -0.23, -0.29, -0.07, 0.39 (mean 0.03; controls 0 of 18).
Variant GFTLNSYGIS | VIYSDGRRTFYSDSVK | GSAAGTFDV showed 1.77, 1.78, nd, 0.90, nd, 1.57 (mean 1.51; controls 0 of 18).
Variant GFELNQYGIS | VIYSDGRRTFYSDSVK | GQDAGTFDS showed 1.16, 0.63, 0.35, 0.26, 0.89, 0.93 (mean 0.70; controls 0 of 18).
Variant GFDLNEYGIS | VIYSDGRRTFYGDAVK | GNAAGTFDS showed 0.08, 0.38, 0.12, -0.52, 0.43, 0.20 (mean 0.12; controls 0 of 18).
Variant GFNLNSYGIS | VIYADGRRTFYVDSVK | GRAAGTFDS showed 0.70, 0.63, -0.27, 0.64, 0.46, 0.92 (mean 0.51; controls 1 of 18).
Variant GFTLNEYGIS | VIYSDGRRTMYDDSVK | GRAAGTFDS showed 0.38, -0.04, 0.45, 0.31, 0.51, 1.22 (mean 0.47; controls 1 of 18).
Variant KFTLNEYGIS | VIYSDGRRTFYGDSVK | GRQAGTFDS showed nd, nd, 1.13, nd, nd, nd (controls 0 of 18).
Variant GFTLESYGIS | VIYADGRRTFYGDSVK | GQAAGTFSS showed -0.06, -0.27, 0.10, 1.24, -0.08, 0.12 (mean 0.18; controls 0 of 18).
Variant GFTLNDYGIS | VIYSDGRRTWYGDSVK | GRAAGTFWS showed nd, nd, nd, nd, nd, nd (controls 0 of 18).
Variant YFTLNEYGIS | VIYSDGRRTFYRDSVK | GRTAGTFDS showed nd, nd, nd, nd, nd, nd (controls 0 of 18).
Variant GFTLNEYGIS | VIYSDGRRTFYSDRVK | GEAAGTFDS showed -0.28, 0.86, 1.05, 1.64, 0.01, nd (mean 0.66; controls 0 of 18).
Variant GFTLNEYGIS | VIYSDGRRTFYGDSVK | GCIAGTFDL showed nd, nd, nd, nd, 1.87, nd (controls 0 of 18).
Variant GFKLNQYGIS | VIYSDGRRTFYADSVK | GRAAGTFDS showed 0.98, 1.60, 1.01, 0.69, 1.39, 1.38 (mean 1.17; controls 1 of 18).
Variant CFTLESYGIS | VIYADGRRTFYGDSVK | GRAAGTFDS showed nd, nd, nd, nd, nd, nd (controls 0 of 18).
Variant GMTLNEYGIS | VIYSDGRRTFYTDSVK | GRTAGTFDS showed 0.43, 0.39, 0.48, 0.52, 0.50, 1.29 (mean 0.60; controls 0 of 18).
Variant GFTLDSYGIS | VIYSDGRRTFYGDSVK | GRAAGTFTR showed nd, nd, nd, nd, nd, nd (controls 1 of 18).
Variant GFDLNSYGIS | VIYSDGRRTFYGDSVK | GRVAGTFES showed nd, 1.00, -0.45, 0.91, 0.96, 0.57 (mean 0.60; controls 0 of 18).
Variant GFQLNDYGIS | VIYSDGRRTFYTDSVK | GRAAGTFIS showed nd, nd, nd, nd, nd, nd (controls 0 of 18).
Variant GFDLNEYGIS | VIYSDGRRTFYGDSVK | GRAAGTFDD showed 0.16, -0.30, 0.13, 0.04, -0.47, -0.33 (mean -0.13; controls 0 of 18).

The last 4 entries again:

{"CDR-H1": "GFTLDSYGIS", "CDR-H2": "VIYSDGRRTFYGDSVK", "CDR-H3": "GRAAGTFTR", "log10 Kd (nM) by replicate": "nd, nd, nd, nd, nd, nd", "log10 Kd (nM), mean": "nd", "control signals": "1/18"}
{"CDR-H1": "GFDLNSYGIS", "CDR-H2": "VIYSDGRRTFYGDSVK", "CDR-H3": "GRVAGTFES", "log10 Kd (nM) by replicate": "nd, 1.00, -0.45, 0.91, 0.96, 0.57", "log10 Kd (nM), mean": "0.60", "control signals": "0/18"}
{"CDR-H1": "GFQLNDYGIS", "CDR-H2": "VIYSDGRRTFYTDSVK", "CDR-H3": "GRAAGTFIS", "log10 Kd (nM) by replicate": "nd, nd, nd, nd, nd, nd", "log10 Kd (nM), mean": "nd", "control signals": "0/18"}
{"CDR-H1": "GFDLNEYGIS", "CDR-H2": "VIYSDGRRTFYGDSVK", "CDR-H3": "GRAAGTFDD", "log10 Kd (nM) by replicate": "0.16, -0.30, 0.13, 0.04, -0.47, -0.33", "log10 Kd (nM), mean": "-0.13", "control signals": "0/18"}

Nonspecific signal, from three strains lacking the peptide, appeared in 1% of pairings of all heavy chain designs, centred on 2.08 (5% of these signals below 0.84); values are not corrected for it. Also given: how often the same scFv was detected with the empty control strains. A sequence measured in both rounds can read differently, since the two assays cover different ranges.

Values reported by Li et al. 2023, doi:10.1038/s41467-023-39022-2 (FLAb copy).